Test system: standard pool of bacteria, yeasts, and molds

OO [Hydrogen peroxide, hydrogen peroxide]
effectiveness in all heat-aged challenge tests (heat-aged, in the presence of a chelating reagent): effective

CC(C)(C)OO [t-BHP, t-butyl hydroperoxide]
effectiveness as preservative for the aqueous dispersion of opaque polymers: effective as preservatives
